The list is not random: actives were taken first. Their share in the collection is about 2.3%.
Nrf2 inh = inhibitors of Nrf2 signaling. A549 ARE-Fluc reporter, luciferase luminescence, 18-24 h. Potency, µM (doses to about 46 µM), without a hit: top-dose activity change, negative = inhibition, hits mostly inhibitors. 360,000 compounds, 2.1% hits. AID 504444; also: potency is read from the fitted curve at half-maximal effect; % is scaled to controls: 0 for no effect and ±100 for the full control effect; nearly all actives have a fitted effect of over 60% in size
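Reporter: ARE-Fluc in A549. Exposure: 18-24 h, 37 °C, 5% CO2, 5% FBS OPTI-MEM. Readouts: fluorescent cytotoxicity (CellTiter-Fluor), then luminescent Nrf2 signal after BugLite.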
Mito fusion act = blocks mitochondrial division or promotes mitochondrial fusion; Potency, µM (doses to about 46.1 µM), for the others: at the top dose growth rescue (activation), hits mostly activators; 320,000 compounds, 0.23% hits; S. cerevisiae fusion-defective mutant growth rescue, CellTiterGlo 48 h; AID 485298; also: potency is read from the fitted curve at half-maximal effect; % of control where 0% means no effect; nearly all actives have a fitted effect of over 45% in size
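Read-out: ATP-based luminescence (CellTiterGlo, 10 min ambient) reporting growth of fusion-defective ts yeast after 48 hours at 37C on glycerol/ethanol YPEG medium in the presence of compound.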
miR-21 reporter = raises the signal of a miR-21 reporter; AID 2288; 340,000 tested, under 10 active; Potency, µM (doses to about 38.3 µM), inactives show at the top dose reporter change, positive = more light; HeLa miR-21 FLuc reporter, luciferase, 48 h; active = well fitted rising curve with a large enough effect; inconclusive = small, poorly fitted or top-dose-only effect; inactive = no such curve, though single readings can be large or run the other way;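 note: % of control where 0% means no effect; miR-21 action dims this reporter so a rising signal means less miR-21 action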
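Using DMEM plus 10% FBS, HeLa miR-21-FLuc cells are incubated with test compounds (final up to about 40uM) for 48 hours; firefly luciferase signal is then imaged following reagent-mediated lysis.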
Nrf2 ARE act = activates Nrf2 signaling | Potency, µM (highest dose often 46.1 µM), for the others: top-dose activation, usual class: activators | 410,000 compounds, 0.31% hits | AREc32 ARE-luciferase reporter (MCF7-derived line), luminescence, 24 h | AID 624171; also: potency is read from the fitted curve at half-maximal effect; % of control where 0% means no effect; nearly all actives have a fitted effect of over 65% in size
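ARE activation measured as luciferase luminescence (Steady-Glo, 30 min RT) in AREc32_Fluc cells after 24 hr compound exposure at 37 deg C, 5% CO2; cells seeded overnight at 1000/well in OPTI-MEM, 5% FBS.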
A549 viability = A549 cytotoxicity, counter-screen for Nrf2 inhibitors; A549 ARE-Fluc cells, CellTiter-Fluor viability, 18-24 h; AID 504648; 390,000 compounds, 0.16% hits; Potency, µM (top dose mostly 46 µM), for the others: at the top dose activity change, negative = cytotoxicity, hits mostly inhibitors; also: potency is read from the fitted curve at half-maximal effect; % is scaled to controls: 0 for no effect and ±100 for the full control effect
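A549 ARE_Fluc cells in 5% FBS OPTI-MEM were exposed to compounds in concentration-response for 18-24 h at 37 deg C. Viability was read by CellTiter-Fluor fluorescence (Ex 405/Em 525) after 30 min, before the luciferase read.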
Starred values were filed as active, the others as inactive; ? = inconclusive; . = not tested or not shown. Unless noted, calls follow the shape of the dose curve; as a rule, active = well fitted curve in the direction sought with a large enough effect; inconclusive = small, poorly fitted or top-dose-only effect, or another doubt; inactive = no such curve, though single readings can be large; an effect the other way counts as inactive or inconclusive.

Abbreviations: A = Nrf2 inh; B = Mito fusion act; C = miR-21 reporter; D = Nrf2 ARE act; E = A549 viability
1. CCOc1ccc(CCNC(=O)Cc2ccc(NC(=O)N3CCSc4ncccc43)cc2)cc1
  A: ?	B: .	C: 14.1%	D: 0.4%	E: 3.7%

2. COc1ccccc1C1CC(c2cccs2)=Nc2ccccc2S1 (stereo unspecified)
  A: 16.2%	B: 14.1%	C: 5.1%	D: 17.8µM*	E: 0.1%

3. COCCNC(=O)CSc1nc2cc3c(cc2c(=O)n1CCCCCC(=O)NCCc1ccc(OC)c(OC)c1)OCO3
  A: .	B: .	C: -1.9%	D: -0.6%	E: 0.3%

4. CCSc1nnc(NC(=O)C2CCN(S(=O)(=O)c3ccccc3C(F)(F)F)CC2)s1
  A: 23.1µM*	B: -7.3%	C: 7.9%	D: -0.3%	E: -1.8%

5. CCSc1nnc(NC(=O)C2CCN(S(=O)(=O)c3c(C)c(C)cc(C)c3C)CC2)s1
  A: .	B: 1.0%	C: -0.3%	D: .	E: .

6. COc1ccc(CN(Cc2ccccc2)C(=O)c2ccncc2)cc1COc1ccc(NC(C)=O)cc1
  A: ?	B: .	C: .	D: .	E: -0.2%

7. CC1(C(=O)NNC(=O)c2cccc([N+](=O)[O-])c2)CC1Br (stereo unspecified)
  A: .	B: .	C: .	D: 6.5%	E: .

8. O=C(O)CC(NC(=O)C12CC3CC(CC(C3)C1)C2)c1cc([N+](=O)[O-])ccc1Cl (stereo unspecified)
  A: -10.4%	B: 3.55µM*	C: -9.0%	D: -0.4%	E: 0.4%

9. O=C(NNC(=O)C12CC3CC(CC(C3)C1)C2)c1cccc([N+](=O)[O-])c1
  A: -8.8%	B: 4.8%	C: -7.3%	D: 10µM*	E: -5.2%

10. COc1ccccc1-c1nnc(NC(=O)CCS(=O)(=O)c2ccc(F)cc2)o1
  A: .	B: .	C: .	D: 22.4µM*	E: .

11. CCN(Cc1ccccc1)S(=O)(=O)c1ccc(C(=O)Nc2nnc(-c3ccccc3OC)o2)cc1
  A: 13µM*	B: 6.5%	C: 2.3%	D: 0.4%	E: -21.7%

12. CC(=O)c1ccc(OCc2cc(C(=O)N3CCC(c4ccncc4)CC3)no2)cc1
  A: 0.0%	B: -37.3%	C: 17.3%	D: 8.1%	E: 1.2%

13. Cc1cccc(C)c1OCc1cc(C(=O)N2CCC(c3ccccc3)CC2)no1
  A: 29.5%	B: 3.6%	C: -50.0%	D: 0.6%	E: 12.7%

14. O=C(c1cc(COc2cccc(C(F)(F)F)c2)on1)N1CCC(c2ccccc2)CC1
  A: 13µM*	B: 6.1%	C: -3.8%	D: 0.0%	E: -18.6%

15. O=C(c1cc(COc2cccc(C(F)(F)F)c2)on1)N1C[C@@H]2CCC[C@H]1C2
  A: ?	B: -1.5%	C: -30.1%	D: 3.3%	E: -18.5%

16. O=C(c1cc(COc2cccc(C(F)(F)F)c2)on1)N1CCC(c2ccncc2)CC1
  A: 13µM*	B: 1.4%	C: -0.6%	D: 1.6%	E: -12.0%

17. COc1cccc(OCc2cc(C(=O)N3CCC(c4ccncc4)CC3)no2)c1
  A: 5.17µM*	B: -38.8%	C: 22.0%	D: 2.5%	E: -16.7%

18. Cc1cccc(-c2noc(CCCC(=O)Nc3cccnc3)n2)c1
  A: ?	B: -0.1%	C: 14.3%	D: -1.3%	E: -3.9%

19. O=C(CCCc1nc(-c2ccc(Cl)cc2)no1)Nc1cccnc1
  A: 10.3µM*	B: 7.5%	C: 22.3%	D: -1.0%	E: .

20. CCN(CCCNC(=O)c1cc(Nc2ccc(OC)cc2OC)nc2ccccc12)c1cccc(C)c1
  A: -4.8%	B: .	C: 20.2%	D: 2.7%	E: -11.9%

21. C=CCOc1c(Br)cc(CNc2ccc(NC(=O)C(C)C)c(OC)c2)cc1OC
  A: 9.2µM*	B: -5.5%	C: 1.5%	D: -0.1%	E: -21.8%

22. COc1cc(CNc2ccc(C(=O)O)cc2)cc(Br)c1OCC(=O)NC(C)(C)C
  A: ?	B: 7.8%	C: -26.2%	D: -0.3%	E: -1.8%

23. Clc1ccc(-c2nc3cnccn3c2Nc2ccc3c(c2)OCO3)cc1
  A: 23.1µM*	B: ?	C: 8.8%	D: -0.7%	E: ?

24. COc1cc(-c2ccc3ncnc(NCc4nc(C)cs4)c3c2)cc(OC)c1OC
  A: ?	B: .	C: .	D: .	E: -2.3%

25. CC(C)CCSc1nc(N)c(C#N)cc1C#N
  A: .	B: 11.2µM*	C: -14.7%	D: 10.6%	E: ?

4 of the entries above in order of the Mito fusion act value, lowest first:
| cpd | Molecule | Mito fusion act | miR-21 reporter |
| --- | --- | --- | --- |
| 12 | CC(=O)c1ccc(OCc2cc(C(=O)N3CCC(c4ccncc4)CC3)no2)cc1 | -37.3% | 17.3% |
| 4 | CCSc1nnc(NC(=O)C2CCN(S(=O)(=O)c3ccccc3C(F)(F)F)CC2)s1 | -7.3% | 7.9% |
| 21 | C=CCOc1c(Br)cc(CNc2ccc(NC(=O)C(C)C)c(OC)c2)cc1OC | -5.5% | 1.5% |
| 9 | O=C(NNC(=O)C12CC3CC(CC(C3)C1)C2)c1cccc([N+](=O)[O-])c1 | 4.8% | -7.3% |

The listing picks up with the 2 entries that preceded the break.
Abbreviations: A = Nrf2 inh; B = Mito fusion act; C = miR-21 reporter; D = Nrf2 ARE act; E = A549 viability
24. COc1cc(-c2ccc3ncnc(NCc4nc(C)cs4)c3c2)cc(OC)c1OC
  A: ?	B: .	C: .	D: .	E: -2.3%

25. CC(C)CCSc1nc(N)c(C#N)cc1C#N
  A: .	B: 11.2µM*	C: -14.7%	D: 10.6%	E: ?

26. N#Cc1nc(NCCCO)nc(Nc2ccccc2)n1
  A: 3.4%	B: .	C: .	D: .	E: 6.0%

27. Cc1cc(C)c(Cc2c(C)nc3c(C(=O)NCc4ccco4)cnn3c2C)c(C)c1
  A: 18.4µM*	B: 10.7%	C: 4.2%	D: 10.4%	E: ?

28. COc1ccc(/C=C2\CCc3ccccc3C2=O)cc1Cn1cccn1
  A: 2.31µM*	B: 17.4%	C: -29.0%	D: 17.4%	E: -17.5%

29. COc1cc(C=C2Cc3ccccc3C2=O)cc(OC)c1OC
  A: .	B: .	C: .	D: 7.08µM*	E: .

30. O=[N+]([O-])c1cccc(S(=O)(=O)N2CCN(c3nc(-c4cccs4)nc4ccccc34)CC2)c1
  A: 0.0%	B: .	C: .	D: .	E: 0.2%

31. COc1cccc(NC(=O)c2nnn(Cc3cccc(C(F)(F)F)c3)c2N)c1
  A: -1.8%	B: .	C: 15.6%	D: -0.2%	E: 14.5%

32. CCCn1c(N)c(C(=O)CSc2nnc(Cc3cccs3)n2C2CC2)c(=O)n(C)c1=O
  A: 11.6µM*	B: 1.1%	C: .	D: 3.1%	E: -3.9%

33. Cn1c(N)c(C(=O)CSc2nnc(Cc3cccs3)n2C2CC2)c(=O)n(C)c1=O
  A: 6.9%	B: 1.3%	C: .	D: 2.2%	E: 0.6%

34. COc1ccc(CCNc2ncnc3nc[nH]c23)cc1
  A: 14.6µM*	B: .	C: .	D: .	E: -1.0%

35. COc1ccccc1CCNc1ncnc2nc[nH]c12
  A: ?	B: .	C: .	D: .	E: 3.8%

36. COc1ccc(C2Nc3ccccc3C(=O)N2Cc2ccccc2)cc1COc1ccc(F)cc1 (stereo unspecified)
  A: -11.5%	B: .	C: .	D: .	E: 7.8%

37. COc1ccc(Cn2c(SCc3cc(C)ccc3C)nc3cc(OC)c(OC)cc3c2=N)cc1
  A: 23.1µM*	B: -23.3%	C: -0.6%	D: -0.1%	E: 18.4µM*

38. COc1ccc(Cn2c(SCc3ccc(C)cc3)nc3cc(OC)c(OC)cc3c2=N)cc1Cl
  A: ?	B: -29.4%	C: 7.1%	D: 7.9%	E: ?

39. CCc1cccc(NC(=O)C(Cc2ccccc2)n2cccc2)c1 (stereo unspecified)
  A: 20.6µM*	B: .	C: 12.6%	D: -0.3%	E: -12.9%

40. O=C1OCC2=C1C(c1cccc(Cl)c1)CC(=O)N2c1ccc(C(F)(F)F)cc1 (stereo unspecified)
  A: 9.6%	B: .	C: -3.1%	D: 0.0%	E: -3.2%

41. Cc1ccc(CNC(=O)CSCc2nc(-c3ccc(Cl)cc3)oc2C)cc1
  A: 20.6µM*	B: .	C: -3.6%	D: -0.5%	E: -7.9%

42. Cc1oc(-c2cccc(Cl)c2)nc1CSCC(=O)NCc1ccccc1Cl
  A: 23.1µM*	B: .	C: 7.0%	D: -0.7%	E: ?

43. CN(C)S(=O)(=O)c1cccc(NC(=O)CCc2nc3sc4c(c3c(=O)[nH]2)CCCC4)c1
  A: 16.4µM*	B: -8.1%	C: .	D: 1.5%	E: -15.7%

44. O=S(=O)(c1cccc(C(F)(F)F)c1)N1CCN(c2nc(-c3cccs3)nc3cc(Cl)ccc23)CC1
  A: 15.9%	B: .	C: .	D: .	E: 0.1%

45. O=C(Nc1nc(-c2ccccn2)cs1)c1ccc(F)c(S(=O)(=O)N2CCOCC2)c1
  A: 8.2µM*	B: -8.3%	C: .	D: 2.8%	E: ?

46. O=C(Nc1nc(-c2ccccn2)cs1)c1cc(S(=O)(=O)N2CCOCC2)ccc1F
  A: 5.4%	B: -3.8%	C: .	D: 2.6%	E: 0.4%

47. COc1ccc(-c2nc(NC(=O)c3ccc(OCC(=O)Nc4ccc(F)cc4)c(OC)c3)sc2C)cc1
  A: 14.6µM*	B: -6.0%	C: 3.8%	D: 0.0%	E: ?

48. O=C(Nc1ccc(Br)cc1)c1cccc(-n2cnnn2)c1
  A: -14.6%	B: ?	C: 2.1%	D: 2.0%	E: -5.7%

49. O=C(Nc1nc(-c2ccccn2)cs1)c1cccc(-n2cnnn2)c1
  A: 7.31µM*	B: -1.8%	C: ?	D: 0.1%	E: -7.5%

High-throughput results: PubChem, National Center for Advancing Translational Sciences (NCATS)
